Tests used:
pH of solution = assay type: physicochemical
[1] = continuous use; well known; cited from earlier work
[2] = stability of 1000 ppm F^- solutions; conditions: Zn, Co several weeks, SnF2 24 hours at room temperature
[3] = fluoride ion availability, Orion-Selective Fluoride electrode

In the case of SnF2, the “pH values in solution” value (pH of solution) is listed as 3.0, the staining of teeth [1] is listed as “stains teeth, yellow to brown” and the “stability of solution (haze/turbidity)” value [2] is listed as “developed turbidity”. For the same substance, the “availability of F^- ion” value ([3]; 1000 ppm F level) was 80% and the “availability of F^- ion” value ([3]; 2500 ppm F level) was 45%.

— patent US4430324A (priority 1982, dated 1984)
